Source: PubChem BioAssay
An excerpt weighted towards active compounds, which were near 1.8% of everything screened.
RAD52 anneal inh: RAD52 (human) annealing inhibition. P43351. recombinant RAD52 DNA annealing, FRET fluorescence. inhibition, % at 18.7 µM. hit rate 0.46% among 360,000. AID 651710;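 active = every replicate showing at least 50% inhibition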
E-sel inducer: E-selectin induction on HUVECs | activation, % at 7.58 µM | hit rate 0.37% among 260,000 | AID 686992 | HUVEC E-selectin immunofluorescence imaging; normalized: neutral wells 0, TNF-alpha wells 100;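 active = mean E-selectin-positive cell signal at least 10% of the positive control, reached in at least 60% of replicates, without over 20% cell loss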
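Assay system: HUVEC, human umbilical vein endothelial cells / Amount: 3,000 HUVEC/well / Controls: TNF-alpha positive control, DMSO neutral control / Compound dosing: single concentration / Medium: EGM-2 over gelatin coat / Evaluation: percent E-selectin-positive cells / Signal: immunofluorescence imaging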
SIRT5 block: sirtuin-5 (human) deacylase inhibition | Purified SirT5, succinyl-peptide AMC, trypsin-coupled fluorescence | hit rate 1.1% among 330,000 | Q9NXA8 | inhibition, % at 15 µM; in the data active = inhibition above about 15%
RAD54 branch: blocks human RAD54 Holliday junction branch migration; Q92698; FAM/BHQ fluorescence; inhibition, % at 10.4 µM; hit rate 0.14% among 360,000; AID 602329;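 active = mean normalized replicate activity at least 40 and at least half of replicates scoring 40 or more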;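 note: 0% = median of neutral control wells and 100% = median of positive control wells; inhibitors cause a drop in the FAM fluorescence signal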
AF4-AF9 inh: MLL-AF4/AF9 protein interaction inhibition; AlphaScreen, biotin-AF4 peptide binding to FLAG-AF9; inhibition, % at 10 µM; P42568; hit rate 0.47% among 350,000;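 active = every replicate reaching a set inhibition limit, whatever the replicate mean, cut at about 25% in these data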;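 note: 0% = plate neutral control median and 100% = total signal loss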
UUG fidelity: yeast start codon fidelity modulation | S. cerevisiae UUG-firefly luciferase reporter, luminescence/redox ratio | activity score, % at 18.7 µM | hit rate 0.13% among 350,000 | AID 602363;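 active means replicate mean at a twofold rise or more, about +100% in these data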;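 further: firefly luciferase made from a UUG start codon reports start codon fidelity; reporter light over untreated wells divided by growth signal over untreated wells; some hits fall short of that in this replicate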
Starred values were filed as active, the others as inactive; · = not tested or not shown.

entry | compound | RAD52 anneal inh | E-sel inducer | SIRT5 block
1 | COc1ccc(C#Cc2ccc3c(c2)[C@]2(C(=O)N3)[C@H](c3ccc(OCCO)cc3)N3[C@H](c4ccccc4)[C@H](c4ccccc4)OC(=O)[C@H]3[C@@H]2C(=O)N2CCc3cc(OC)c(OC)cc3C2)cc1 | -41 | · | 15*
2 | COc1ccc(C#Cc2ccc3c(c2)[C@]2(C(=O)N3)[C@H](C(=O)N3CCc4cc(OC)c(OC)cc4C3)[C@H]3C(=O)O[C@H](c4ccccc4)[C@H](c4ccccc4)N3[C@@H]2c2ccc(OCCO)cc2)cc1 | -202 | · | -4
3 | NC(=O)[C@H]1[C@@H]2C(=O)O[C@@H](c3ccccc3)[C@@H](c3ccccc3)N2[C@@H](c2ccc(OCCO)cc2)[C@]12C(=O)Nc1ccc(C#CC3(O)CCCCCC3)cc12 | -18 | · | 14
4 | NC(=O)[C@H]1[C@@H]2C(=O)O[C@@H](c3ccccc3)[C@@H](c3ccccc3)N2[C@@H](c2ccccc2OCCO)[C@]12C(=O)Nc1ccc(C#CC3(O)CCCCCC3)cc12 | 13 | · | 16*
5 | COc1ccccc1CNC(=O)C[C@@H]1CC[C@@H]2[C@@H](COc3ccc(NC(C)=O)cc3C(=O)N2C)O1 | · | 0 | ·
6 | CO[C@H]1O[C@H](CO)[C@@H](OC(=O)Nc2cccc(F)c2)[C@H](OC(=O)Nc2ccccc2)[C@H]1OC(=O)Nc1ccccc1 | 13 | · | -1
7 | COc1ccc(CN2CC3(CN(C(=O)Cc4ccncc4)C3)c3c([nH]c4cc(OC)ccc34)[C@H]2CO)cc1 | -23 | 0 | ·
8 | CCCNC(=O)Nc1ccc2c(c1)C(=O)N(C)C[C@@H](OC)[C@@H](C)CN[C@@H](C)CO2 | -2 | 1 | 2
9 | COc1cc2c(cc1OC)C(c1c(Cl)cccc1Cl)NC(=O)C2 (stereo unspecified) | -2 | · | 26*
10 | Cc1ccc2nc(-c3ccccc3)c(Cc3cccc(Cl)c3)n2c1 | -39 | · | 22*

entry | RAD54 branch | AF4-AF9 inh | UUG fidelity
1 | -1 | -3 | 3
2 | -24 | -2 | 7
3 | -3 | 0 | -8
4 | -3 | 1 | 21
5 | 4 | · | 1
6 | -7 | 0 | -2
7 | · | 1 | ·
8 | -2 | -3 | ·
9 | -5 | -4 | -16
10 | 1 | 1 | -27

Compound profiles, as listed above. Order of values: RAD52 anneal inh | E-sel inducer | SIRT5 block | RAD54 branch | AF4-AF9 inh | UUG fidelity
COc1cc2c(cc1OC)C(c1c(Cl)cccc1Cl)NC(=O)C2 (stereo unspecified) is listed with -2 | · | 26* | -5 | -4 | -16
COc1ccc(CN2CC3(CN(C(=O)Cc4ccncc4)C3)c3c([nH]c4cc(OC)ccc34)[C@H]2CO)cc1 is listed with -23 | 0 | · | · | 1 | ·
COc1ccc(C#Cc2ccc3c(c2)[C@]2(C(=O)N3)[C@H](C(=O)N3CCc4cc(OC)c(OC)cc4C3)[C@H]3C(=O)O[C@H](c4ccccc4)[C@H](c4ccccc4)N3[C@@H]2c2ccc(OCCO)cc2)cc1 is listed with -202 | · | -4 | -24 | -2 | 7

Next part:
entry | compound | RAD52 anneal inh | E-sel inducer | SIRT5 block
11 | Clc1cccc(Cc2c(-c3ccccc3)nc3ccc(Cl)cn23)c1 | -35 | 0 | -2
12 | O=C(O)c1cccc(NC(=O)c2cn(-c3ccccc3)nc2-c2cccc(Br)c2)c1 | -11 | · | 16*
13 | O=C(O)c1cccc(NC(=O)c2cn(-c3ccccc3)nc2-c2ccncc2)c1 | -13 | 0 | -3
14 | CO[C@H]1CN(C)C(=O)c2cc(NC(=O)Nc3ccc(Cl)c(Cl)c3)ccc2OC[C@H](C)NC[C@H]1C | 54* | 1 | 8
15 | CO[C@@H]1CN(C)C(=O)c2cc(NC(=O)Nc3ccc(Cl)c(Cl)c3)ccc2OC[C@H](C)NC[C@@H]1C | 52* | 2 | 8
16 | CO[C@@H]1CN(C)C(=O)c2cc(NC(=O)Nc3ccc(Cl)cc3)ccc2OC[C@H](C)NC[C@H]1C | 13 | 0 | 2
17 | Cc1cccn2c(=O)c(/C=N/O)c(NCc3ccccc3)nc12 | 0 | · | -2
18 | Cc1cccn2c(=O)c(/C=N/O)c(Nc3ccccc3F)nc12 | -8 | 59* | ·
19 | COC(=O)C1=C(C)N(Cc2cccc(C(F)(F)F)c2)C(=NCc2ccc(OC)cc2)NC1c1ccccc1C(F)(F)F (stereo unspecified) | -47 | 0 | 15*
20 | COC(=O)C1=C(C)N(Cc2ccccc2C(F)(F)F)C(=NCc2ccc3c(c2)OCO3)NC1c1cccc(F)c1 (stereo unspecified) | -20 | 0 | 17*

entry | RAD54 branch | AF4-AF9 inh | UUG fidelity
11 | -7 | 0 | -26
12 | 11 | 0 | -17
13 | · | -3 | ·
14 | 29 | · | ·
15 | 27 | · | ·
16 | 6 | 5 | 39
17 | · | 2 | ·
18 | · | 0 | ·
19 | · | · | ·
20 | · | · | ·

Later entries.
entry | compound | RAD52 anneal inh | E-sel inducer | SIRT5 block
21 | C[C@@H]1CN([C@H](C)CO)C(=O)c2cccc(NC(=O)Nc3ccccc3)c2O[C@@H]1CN(C)S(=O)(=O)c1ccc(Cl)cc1 | 23 | 2 | 3
22 | COc1ccc(C(=O)Nc2ccc3c(c2)C(=O)N(C)C[C@H](OC)[C@@H](C)CN(C(C)=O)[C@H](C)CO3)cc1 | -2 | 0 | -2
23 | CO[C@@H]1CN(C)C(=O)c2ccc(NC(=O)C3CCOCC3)cc2OC[C@@H](C)N(C(=O)Nc2ccc(C(F)(F)F)cc2)C[C@H]1C | 13 | 0 | -1
24 | CCOc1c(Br)cc(CNc2ccc(N3CCN(C(C)=O)CC3)cc2)cc1OC | 27 | · | -4
25 | CCOc1cc(CNc2ccc(N3CCCCC3)cc2)cc(Br)c1OCC(=O)NC(C)(C)C | · | 1 | ·
26 | CNC[C@H](CC1CCCCC1)NC[C@H](Cc1ccccc1)NCCC12CC3CC(CC(C3)C1)C2 | 26 | 1 | ·
27 | COc1ccc(-c2ccc3c(c2)O[C@@H](CN(C)CC2CCOCC2)[C@H](C)CN([C@@H](C)CO)S3(=O)=O)cc1 | -15 | 0 | 14
28 | CC(C)OC(=O)c1cccnc1N1CCN(c2cccc(Cl)c2)CC1 | -1 | 34* | -4
29 | CO[C@H](CN(C)C(=O)c1ccccc1F)[C@@H](C)CN([C@@H](C)CO)S(=O)(=O)c1ccccc1 | 11 | 0 | ·
30 | COc1ccc2c3c(n(C)c2c1)[C@@H](CO)N(C(=O)Nc1ccc(F)cc1)CC31CCN(Cc2cccc(F)c2)CC1 | -2 | -1 | 2

entry | RAD54 branch | AF4-AF9 inh | UUG fidelity
21 | -19 | 8 | 11
22 | -2 | 1 | -12
23 | -10 | -2 | ·
24 | -3 | 27* | -19
25 | 9 | · | -9
26 | 19 | 40* | -3
27 | -7 | 2 | 28
28 | · | 0 | ·
29 | -4 | -24 | ·
30 | · | 0 | ·

More records
entry | compound | RAD52 anneal inh | E-sel inducer | SIRT5 block
31 | COc1ccc2c3c(n(C)c2c1)[C@@H](CO)N(C(=O)Nc1ccc(F)cc1)CC31CCN(Cc2ccccn2)CC1 | 23 | 0 | 2
32 | COc1cccc(CN2CCC3(CC2)CN(C(=O)Nc2ccc(F)cc2)[C@H](CO)c2c3c3ccc(OC)cc3n2C)c1 | · | 0 | ·
33 | COc1ccc2c3c(n(C)c2c1)[C@H](CO)N(C(=O)Nc1ccc(F)cc1)CC31CCN(Cc2ccccn2)CC1 | · | 1 | 1
34 | C[C@H](CO)N1C[C@H](C)[C@H](CN(C)C(=O)Nc2cccc3ccccc23)Oc2c(NC(=O)c3nc4ccccc4s3)cccc2C1=O | -4 | 0 | -1
35 | CCN1CCN(C(=O)CN(CC)S(=O)(=O)c2ccc3ccccc3c2)CC1 | -11 | · | 23*
36 | CCN1CCN(C(=O)CN(CC)S(=O)(=O)c2ccc(Cl)cc2)CC1 | · | · | ·
37 | Cc1ccc(-c2ccnc3c(Cl)c(C)nn23)cc1 | -4 | 0 | -3
38 | C[C@H]1CN([C@@H](C)CO)C(=O)c2cccc(NC(=O)CCCCCC(=O)Nc3ccccc3N)c2O[C@H]1CN(C)CC1CCCCC1 | 4 | 4 | -2
39 | CC(C)NC(=O)N(C)C[C@H]1Oc2c(NC(=O)CCCCCC(=O)Nc3ccccc3N)cccc2C(=O)N([C@H](C)CO)C[C@@H]1C | 3 | -15 | ·

entry | RAD54 branch | AF4-AF9 inh | UUG fidelity
31 | · | 29* | ·
32 | · | 36* | ·
33 | · | 13 | ·
34 | 0 | 1 | -12
35 | 0 | -13 | -15
36 | -3 | · | -13
37 | -9 | 51* | -12
38 | · | 0 | ·
39 | · | 0 | ·
